Source: PubChem BioAssay AID549 (SRMLSC, 2006)
The source made the active and inactive calls.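 The calls were made as follows: active = clearly stronger inhibition of phosphomevalonate kinase than of the coupling enzymes alone in a parallel counterscreen; inactive = the rest.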

Target: phosphomevalonate kinase (Streptococcus pneumoniae D39)
Assay: phosphomevalonate kinase inhibition IC50 – biochemical, mevalonate pathway, coupling enzyme counter-screen, dose response (AID 549)
Conditions: PMK enzyme, PK/LDH coupled NADH absorbance 340 nm

O=P(Nc1nccs1)(c1ccccc1)c1nc2ccccc2s1 (stereo unspecified)
IC50: inactive
